The values below come from patent US4925943A, “2-(2-aminobenzyl or 2-nitrobenzyl)-1,2,3,4-tetrahydroisoquinoline derivatives” (priority 1986, dated 1990).

The test concerns the target T1, α1 adrenergic receptors of isolated rat deferent canal (Rattus norvegicus, UniProt P43140).
T1 construct: The deferent canals of 12-week old male Wistar rats are removed; from tissue; host or cells: isolated vas deferens (deferent canal) of male Wistar rats
T1 sequence (P43140 1-466): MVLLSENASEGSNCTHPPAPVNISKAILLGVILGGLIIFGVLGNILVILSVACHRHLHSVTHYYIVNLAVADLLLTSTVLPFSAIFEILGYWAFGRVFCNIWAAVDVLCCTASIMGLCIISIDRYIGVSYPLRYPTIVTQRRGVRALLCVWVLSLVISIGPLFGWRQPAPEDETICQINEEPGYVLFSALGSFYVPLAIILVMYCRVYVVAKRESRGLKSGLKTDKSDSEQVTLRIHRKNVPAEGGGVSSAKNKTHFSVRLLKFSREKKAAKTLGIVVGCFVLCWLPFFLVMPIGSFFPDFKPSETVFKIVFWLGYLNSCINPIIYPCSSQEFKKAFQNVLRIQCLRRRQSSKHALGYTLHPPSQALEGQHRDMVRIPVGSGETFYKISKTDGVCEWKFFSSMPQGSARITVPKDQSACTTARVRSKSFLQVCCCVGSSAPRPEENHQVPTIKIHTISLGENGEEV
Briefly: antagonism with phenylephrine induced contraction of rat deferent canal. Set-up: species or system rat (male Wistar).

In general, Kb refers to the affinity of an antagonist, worked out from how it opposes an agonist. Low readings indicate a more potent antagonist, high ones a less potent antagonist. In turn, `COC(=O)[C@@H]1[C@H]2C[C@H]3c4[nH]c5ccccc5c4CCN3C[C@@H]2CC[C@@H]1O` [Yohimbine] gave a Kb of 832 nM.
